Source: BindingDB's records for doi:10.1111/j.1747-0285.2009.00857.x (Istituto Di Biostrutture E Bioimmagini-Cnr, 2009)

By UniProt entry, the sequences of proteins in these tests, tags left out. Where a name states a change or a piece, a line headed by the entry shows the natural chain unless it says otherwise.
UniProt O43570: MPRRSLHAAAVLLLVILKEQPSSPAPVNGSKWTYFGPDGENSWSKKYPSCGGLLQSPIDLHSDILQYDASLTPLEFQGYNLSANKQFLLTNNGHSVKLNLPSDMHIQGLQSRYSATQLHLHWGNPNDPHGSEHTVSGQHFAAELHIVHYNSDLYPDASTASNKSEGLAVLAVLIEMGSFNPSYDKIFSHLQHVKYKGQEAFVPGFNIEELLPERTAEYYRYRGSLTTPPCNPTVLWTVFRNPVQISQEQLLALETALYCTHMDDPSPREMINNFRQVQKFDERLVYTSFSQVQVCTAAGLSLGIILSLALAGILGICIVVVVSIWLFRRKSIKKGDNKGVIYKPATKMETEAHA

Target: Carbonic anhydrase 12 (Homo sapiens, UniProt O43570)
Test: Inhibition Assay
Settings: pH 7.5; 20 °C

Molecule `NS(=O)(=O)c1ccc(N2CCCCS2(=O)=O)cc1` [Ospolot] has a Ki of 0.056 µM.
